# Laboratory results reported in patent publication US4755381A, “Klebsiella capsular polysaccharide vaccine” (Swiss Serum and Vaccine Institute Berne, priority 1986, dated 1988).
# Tested on: K. pneumoniae capsular type 2
# Assay: Protection of mice against fatal Klebsiella burn wound sepsis by IVIG preparations
# Assay type: in vivo
# Details: 500 mg/kg i.v.
# Procedure: ^1 Significance refers to mortality as compared to the human
# albumintreated control group. NS = not significant, p > 0.05. Calculated
# The ability of Globuman and Klebsiella immune-IVIG to prevent fatal Klebsiella burn wound sepsis when used in a prophylactic manner was determined. Mice (18-20 g female, NMRI strain) each received graded doses of the IVIG preparations (5 mg/kg to 500 mg/kg) or human albumin at 500 mg/kg (Albuman, Swiss Serum and Vaccine Institute, Berne, Switzerland) intravenously in 0.2 ml. Approximately 24 hours later the mice were burned and infected with 60 K. pneumoniae capsular type 2 bacteria. The mortality rate for the group of mice which received human albumin as a control was 87%.
substance,measurement,value
"Human Albumin: human albumin (Albuman, Swiss Serum and Vaccine Institute), control",Mean time to death,103.4 h
same,Mortality (%),87%
same,Mortality Nr. dead/total,13/15
